Assay results reported in US20100249093A1, “Substituted Heteroarylpiperidine Derivatives As Melanocortin-4 Receptor Modulators” (SANTHERA PHARMACEUTICALS (SCHWEIZ) AG, priority 2007, published 2010).

Chains of the proteins cited; added tags and fusions are not shown.
UniProt P32245, whole entry: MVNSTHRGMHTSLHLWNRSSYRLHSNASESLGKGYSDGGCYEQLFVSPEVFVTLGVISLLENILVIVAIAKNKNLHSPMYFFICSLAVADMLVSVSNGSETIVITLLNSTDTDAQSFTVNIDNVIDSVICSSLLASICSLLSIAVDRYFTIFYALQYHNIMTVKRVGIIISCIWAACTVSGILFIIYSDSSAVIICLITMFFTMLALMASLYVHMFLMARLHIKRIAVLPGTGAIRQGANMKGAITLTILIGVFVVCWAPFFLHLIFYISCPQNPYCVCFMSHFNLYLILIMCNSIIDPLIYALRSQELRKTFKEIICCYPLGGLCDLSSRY

Molecular target: human melanocortin-4 receptor (MC-4R) (Homo sapiens, UniProt P32245)
Assay: Membrane binding assay: competition with fluorescence labeled NDP-alpha-MSH, fluorescence polarization
[1] = read-out: hMC-4R binding assay IC50, HEK293 cell membrane preparations expressing human MC-4R, tested form: 2 × HCl
[2] = read-out: hMC-4R binding assay IC50, HEK293 cell membrane preparations expressing human MC-4R, tested form: HCOOH

| SMILES | IC50 [2] [nM] | also measured |
| --- | --- | --- |
| CC[C@H](COc1cccnc1C1CCN(C(=O)[C@@H](Cc2ccc(Cl)cc2Cl)NC(=O)N(C)CCOC)CC1)N(C)C |  | IC50 [1]: < 100 nM |
| CC[C@@H](CN1CCCC1)Oc1nc(C)ccc1C1CCN(C(=O)[C@@H](Cc2ccc(Cl)cc2Cl)NC(=O)N2CCCC2)CC1 |  | IC50 (read-out: hMC-4R binding assay IC50, HEK293 cell membrane preparations expressing human MC-4R, tested form: 2 HCOOH): < 100 nM |
| CC[C@H](COc1cc(C)cnc1C1CCN(C(=O)[C@@H](Cc2ccc(Cl)cc2F)NC(=O)N2CCCC2)CC1)N(C)C | < 100 |  |
| CN1CCC[C@H](Oc2cccnc2C2CCN(C(=O)[C@@H](Cc3ccc(Cl)cc3Cl)NC(=O)N3CC(O)C3)CC2)C1 | < 100 |  |
| CC[C@H](COc1cccnc1C1CCN(C(=O)[C@@H](Cc2ccc(Cl)cc2Cl)NC(=O)N2CCCC2)CC1)N1CCCC1 |  | IC50 [1]: < 100 nM |
| CC[C@H](COc1cccnc1C1CCN(C(=O)[C@@H](Cc2ccc(Cl)cc2Cl)NC(=O)N2CC[C@@H]2CO)CC1)N(C)C |  | IC50 (read-out: hMC-4R binding assay IC50, HEK293 cell membrane preparations expressing human MC-4R): < 100 nM |

Further lines, with some results ahead:

| IC50 [2] [nM] | SMILES | also measured |
| --- | --- | --- |
| < 100 | CC[C@H](COc1cccnc1C1CCN(C(=O)[C@@H](Cc2ccc(C)cc2Cl)NC(=O)N2CCCC2)CC1)N1CCCC1 |  |
| < 100 | CC[C@H](COc1cccnc1C1CCN(C(=O)[C@@H](Cc2ccc(Cl)cc2C)NC(=O)N2CCCC2)CC1)N1CCCC1 |  |

Read-outs that look alike come from different tables or passages of the source.
